From PubChem BioAssay (Tox21)
The list shows a part of the results, in another mix than the full data. Results filed as inconclusive are left out. Calls of active or inactive are those of the source. Unless noted, calls follow the shape of the dose curve; as a rule, active = well fitted curve in the direction sought with a large enough effect in the repeat runs; inconclusive = weak or mixed curves; inactive = no such curve, though single readings can be large; an effect the other way counts as inactive or inconclusive.

Amino acid sequences for entries named in this document (tags omitted).
UniProt P04150, whole entry: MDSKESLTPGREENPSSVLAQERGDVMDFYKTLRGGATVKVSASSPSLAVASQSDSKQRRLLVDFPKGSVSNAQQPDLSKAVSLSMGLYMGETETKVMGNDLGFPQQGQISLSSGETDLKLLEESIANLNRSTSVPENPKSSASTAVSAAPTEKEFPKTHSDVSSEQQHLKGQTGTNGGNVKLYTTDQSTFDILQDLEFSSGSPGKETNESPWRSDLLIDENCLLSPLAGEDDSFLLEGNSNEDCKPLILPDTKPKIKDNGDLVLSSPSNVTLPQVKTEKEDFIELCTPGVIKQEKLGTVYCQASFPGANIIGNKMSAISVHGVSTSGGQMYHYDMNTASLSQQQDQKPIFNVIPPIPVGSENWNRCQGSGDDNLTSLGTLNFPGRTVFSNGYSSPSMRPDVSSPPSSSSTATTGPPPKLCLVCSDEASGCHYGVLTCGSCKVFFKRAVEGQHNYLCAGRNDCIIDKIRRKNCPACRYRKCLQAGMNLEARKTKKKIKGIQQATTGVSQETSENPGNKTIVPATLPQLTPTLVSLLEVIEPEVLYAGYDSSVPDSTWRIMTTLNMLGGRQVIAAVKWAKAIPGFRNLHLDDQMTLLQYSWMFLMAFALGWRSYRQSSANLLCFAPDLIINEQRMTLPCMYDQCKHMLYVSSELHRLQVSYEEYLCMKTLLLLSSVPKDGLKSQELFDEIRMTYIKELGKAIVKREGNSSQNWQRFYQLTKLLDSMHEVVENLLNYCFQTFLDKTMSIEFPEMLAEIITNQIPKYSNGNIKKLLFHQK

Tests used:
[1] = qHTS assay for small molecule agonists of the p53 signaling pathway (AID 651631; calls by dose curve; also: nearly all actives have a fitted effect of over 15% in size); settings: HCT-116 p53RE-bla reporter, beta-lactamase FRET ratio, 16 h; at 73.3 µM (top of the series)
Method in brief: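 Testing took place in human colorectal HCT-116 cells with stable p53RE-driven beta-lactamase. After 16 h of compound exposure at 37 °C, a FRET substrate was added and fluorescence recorded 2 h later.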

[2] = qHTS assay for small molecules that induce genotoxicity in human embryonic kidney cells expressing luciferase-tagged ATAD5 (AID 651632); also: nearly all actives have a fitted effect of over 15% in size
Method in brief: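 HEK293T cells carrying a luciferase reporter tagged to ATAD5 were exposed to compound or DMSO vehicle for 16 hr at 37C, 5% CO2. Amplite was added, and after 30 min at room temperature luciferase activity was read as a marker of ATAD5 induction.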

[3] = qHTS assay for small molecule agonists of the p53 signaling pathway - cell viability (AID 651633; calls by dose curve; also: nearly all actives have a fitted effect of over 30% in size); settings: p53RE-bla HCT-116 viability, ATP luminescence, 16 h; at 83.3 µM (top of the series)
Method in brief: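 Viability counter-read: CellTiter-Glo luminescence (30 min, room temperature) in the same p53RE-bla plates. These plates had been exposed to compounds for 16 h at 37 C.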

[4] = qHTS assay for small molecules that induce genotoxicity in human embryonic kidney cells expressing luciferase-tagged ATAD5 - cell viability (AID 651634; calls by dose curve; also: nearly all actives have a fitted effect of over 25% in size); settings: HEK293T ATAD5-luc cells viability, CellTiter-Fluor, 15.5 h; at 83.3 µM (top of the series)
Method in brief: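 HEK293T cells expressing luciferase-tagged ATAD5 were exposed to compound or DMSO for 15.5 hr at 37C, 5% CO2. Viability was then read as live-cell protease activity by CellTiter-Fluor fluorescence after 30 min at 37C.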

[5] = qHTS assay for small molecule disruptors of the mitochondrial membrane potential - cell viability (AID 720634; calls by dose curve;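 also: human HepG2 liver cancer cells; nearly all actives have a fitted effect of over 20% in size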); settings: HepG2 viability, ATP luminescence (CellTiter-Glo), 1 h; at 83.2 µM (top of the series)
Method in brief: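 HepG2 cells seeded overnight at 37 C, then exposed to compound or DMSO for 1 hr at 37 C, 5% CO2. m-MPI dye added, then CellTiter-Glo for 30 min at room temperature; viability read as ATP luminescence.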

[6] = qHTS assay to test for compound auto fluorescence at 590 nm (red) in HepG2 cells (AID 720674); settings: HepG2 autofluorescence, red 540/590 nm, 1 h; at 46 µM (top of the series)
Method in brief: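 We screened compounds on adherent HepG2 cells, incubating them for an hour at 37 C in 5% CO2 before reading emission at 590 nm under 540 nm excitation; values reflect equivalence to Rose Bengal sodium fluorescence.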

[7] = qHTS assay to test for compound auto fluorescence at 535 nm (green) in HepG2 cells (AID 720675); settings: green autofluorescence 485/535 nm, 1 h, at 46 µM (top of the series)
[8] = qHTS assay to test for compound auto fluorescence at 460 nm (blue) in HEK293 cells (AID 720678); settings: blue autofluorescence 405/460 nm, at 46 µM (top of the series)
Method in brief: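 Cells were seeded and left to adhere for 4-5 hr at 37C. Compounds were then pin-transferred. After an overnight incubation at 37C under 5% CO2, intrinsic fluorescence at 405/460 nm was measured and referenced to triamterene.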

[9] = qHTS assay to test for compound auto fluorescence at 590 nm (red) in HEK293 cells (AID 720679); settings: red autofluorescence 540/590 nm, at 46 µM (top of the series)
Method in brief: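 Each well held 2,000 HEK293 cells in medium containing 10% dialyzed FBS. Following 4-5 hr attachment at 37C, 23 nL test compound or DMSO was added; plates sat overnight, and red fluorescence (540/590nm) was recorded.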

[10] = qHTS assay to test for compound auto fluorescence at 535 nm (green) in HEK293 cells (AID 720680); settings: green autofluorescence 485/535 nm, at 46 µM (top of the series)
[11] = qHTS assay to test for compound auto fluorescence at 460 nm (blue) in HEK293 cell free culture (AID 720681); settings: cell-free medium, autofluorescence 405/460 nm (blue); at 46 µM (top of the series)
Method in brief: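 Blue fluorescence (Ex 405/Em 460 nm, triamterene-equivalent) was read immediately after pin transfer of compound or DMSO into medium (DMEM, 10% FBS) without cells.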

[12] = qHTS assay to test for compound auto fluorescence at 535 nm (green) in HEK293 cell free culture (AID 720682); settings: cell-free medium, green autofluorescence 485/535 nm; at 46 µM (top of the series); active compounds read high
Method in brief: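 DMEM + 10% FBS, cell-free; cpd or DMSO pinned in; Ex485/Em535 read; output as fluorescein-equivalent signal.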

[13] = qHTS assay to test for compound auto fluorescence at 590 nm (red) in HEK293 cell free culture (AID 720683); settings: cell-free medium autofluorescence, Ex540/Em590 red; at 46 µM (top of the series)
Method in brief: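 Red-channel autofluorescence of compounds in culture medium (DMEM, 10% FBS), no cells, measured at 540/590 nm. Rose Bengal sodium is the reference fluorophore for equivalence.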

[14] = qHTS assay to test for compound auto fluorescence at 590 nm (red) in HepG2 cell free culture (AID 720684); settings: cell-free medium autofluorescence, red 540/590 nm; at 46 µM (top of the series)
Method in brief: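 Plate contents were MEM with 10% FBS plus test compound or DMSO, no cells. Fluorescence was recorded with 540 nm excitation and 590 nm emission.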

[15] = qHTS assay to test for compound auto fluorescence at 460 nm (blue) in HepG2 cell free culture (AID 720685); settings: Cell-free culture medium, blue autofluorescence 405/460 nm; at 46 µM (top of the series)
Method in brief: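 Compound (23 nL) or DMSO pinned into cell-free MEM with 10% FBS; blue fluorescence read at 405/460 nm excitation/emission, expressed as auto-fluorescence equivalency to triamterene.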

[16] = qHTS assay to test for compound auto fluorescence at 535 nm (green) in HepG2 cell free culture (AID 720686); settings: Cell-free medium, green autofluorescence 485/535 nm; at 46 µM (top of the series)
[17] = qHTS assay to test for compound auto fluorescence at 460 nm (blue) in HepG2 cells (AID 720687); settings: autofluorescence 405/460 nm, 1 h, at 46 µM (top of the series)
Method in brief: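 Blue-channel autofluorescence (Ex/Em 405/460 nm, triamterene-equivalent) was measured after 1 hr compound exposure at 37 C, 5% CO2. Cells were HepG2, plated overnight at 37 C in MEM plus 10% FBS.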

[18] = target: Glucocorticoid receptor (Homo sapiens) (UniProt P04150); experiment: qHTS assay to identify small molecule agonists of the glucocorticoid receptor (GR) signaling pathway (AID 720691; active = well fitted activation curve with a large enough effect in the signal ratio in the repeat runs, not every such curve was filed as active; the % refers to the signal ratio); settings: GR-bla HeLa, beta-lactamase reporter ratio, 18 h; at 62.4 µM (top of the series)
[19] = qHTS assay for identifying genotoxic compounds that show differential cytotoxicity against isogenic chicken DT40 cell lines with known DNA damage response pathways - wild type cell line (AID 743012); settings: DT40 wild type chicken cells viability, CellTiter-Glo, 40 h; at 68.4 µM (top of the series); also: nearly all actives have a fitted effect of over 60% in size
Method in brief: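 Parental DNA repair-proficient DT40 cells, 300 per well, were pre-incubated ~0.5 h at 37 C/5% CO2, pin-dosed with compounds in DMSO, then incubated 40 h. Viability was read as CellTiter-Glo luminescence after 30 min at room temperature.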
% is scaled to controls: 0 for no effect and ±100 for the full control effect.

CC(C)N(CCCl)C(C)C
inactive: activation [1] -2.06% | Potency [2] | activity change, negative = cytotoxicity [3] 20% | activity, negative = cytotoxicity [4] -9.47% | activity change, negative = cytotoxicity [5] -6.99% | fluorescence, relative to Rose Bengal [6] 0.001% | fluorescence, % of fluorescein control [7] -0.0233% | fluorescence, % of triamterene [8] -0.0079% | fluorescence, % of fluorescent control [9] 0.0982% | fluorescence, % of fluorescein [10] 0.0036% | fluorescence, % of fluorescent control [11] 0.0931% | activity change [12] -0.0165% | fluorescence, % of fluorescent control [13] 0.228% | fluorescence, % of Rose Bengal [14] 0.0413% | fluorescence, % of fluorescent control [15] -0.137% | fluorescence, % of fluorescein control [16] 0.0261% | fluorescence, % of fluorescent control [17] 0.0318% | activation [18] -1.48% | activity change, negative = cytotoxicity [19] 1%
